# Measurements: PubChem BioAssay AID463218 (Sanford-Burnham Center for Chemical Genomics, 2010)
# Only a part is listed here, and it is no random draw. Active and inactive are the calls of the source.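 Rule for the calls: active = inhibition above about 39% in either of two replicate wells at 20 µM (limit read from the data); inactive = the rest.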
# Assay: tim23-1 mutant yeast growth inhibitors, confirmation, luminescence, single concentration (AID 463218);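 note: temperature-sensitive tim23-1 mutant grown at 25 °C; 0% = DMSO wells with yeast and 100% = medium wells without yeast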
# Details: S. cerevisiae tim23-1 growth, BacTiter-Glo luminescence, 24 h; at 20 µM; stronger effect = higher value
row,Structure (SMILES),inhibition
1,O=[N+]([O-])c1cc([N+](=O)[O-])c(CCNc2ccccc2)c([N+](=O)[O-])c1,inactive: 3.05%
2,C[N+]1=C2C=CC=CC=C2SC12C([N+](=O)[O-])=CC([N+](=O)[O-])=C[C-]2[N+](=O)[O-] (stereo not drawn),active: 76.3%
3,Cc1ccc(NCCc2c([N+](=O)[O-])cc([N+](=O)[O-])cc2[N+](=O)[O-])cc1,inactive: 27.6%
